# Antibody variant affinities, Ab-14 heavy chain, assay B

Target peptide (SARS-CoV-2 spike, HR2 region): PDVDLGDISGINAS

The variants keep the light chain, the linker and the frameworks of Ab-14 (scFv order VH, a (GGGGS)3 linker, VL).
VH: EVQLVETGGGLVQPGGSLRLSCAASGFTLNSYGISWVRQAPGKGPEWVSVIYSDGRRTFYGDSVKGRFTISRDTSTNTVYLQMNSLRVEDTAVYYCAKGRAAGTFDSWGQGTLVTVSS
VL: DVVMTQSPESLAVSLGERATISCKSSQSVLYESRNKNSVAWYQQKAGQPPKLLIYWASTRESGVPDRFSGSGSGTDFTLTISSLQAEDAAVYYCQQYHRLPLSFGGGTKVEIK

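Phage display of a naive human antibody library on the peptide gave the parent. Designed CDR sequences, proposed from the first random library and measured here. Several design methods are mixed in this list. The assay is AlphaSeq: two haploid yeast populations carry antibody and antigen on their surface. Pairs that bind mate more often; barcode pairs of the diploids are counted by sequencing. Scores were corrected for input abundance and mapped to Kd with protein pairs of known affinity run in the same pool. There are six technical replicates.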

Positions count from residue 1 of the parent VH; L29G puts G in place of L.
Variants here have at most six changes.
The Kd shown is the geometric mean over detected replicates; a lower Kd is a better binder.
Where no diploid with the target was found in any replicate, the entry reads "nd": below detection, most likely a poor binder, though not proof of it.
As a blank, each scFv also met three strains without target: over all heavy chain designs, 1% of these pairings were detected, typically at 120 nM and seldom below 7.0 nM.
In the paper, a design with two or fewer of six values counts as a poor binder.
A sequence measured in both rounds can read differently, since the two assays cover different ranges.

With L29G S31E S53Q G61T G99N A101F the result was nd (0 of 6 replicates). The variant S31E G61T R100K A101F showed 5.5 nM (2 of 6 replicates). For S31M R56M R100E G103K S107T, the assay gave nd (0 of 6 replicates). The variant N30E T58V showed 78 nM (2 of 6 replicates). With N30K S53A R100Q D106S the result was 39 nM (5 of 6 replicates). The variant T28D G61I S63E A101T gave 1.0 nM (6 of 6 replicates). The variant R56Q S63D A101T showed 9.8 nM (6 of 6 replicates). For R56H G61D R100Q A101I, the assay gave 5.0 nM (4 of 6 replicates). With T28N G61L R100N the result was 1.2 nM (6 of 6 replicates).

The variant T28Q R56Q showed 44 nM (6 of 6 replicates). The variant S31K G61S A101E D106F gave nd (0 of 6 replicates). With T28Q G61K R100K A101T the result was 45 nM (1 of 6 replicates). With T28E S63M A101T S107V the result was 10 nM (6 of 6 replicates). The variant T28S G61A S63A A101T showed 8.6 nM (6 of 6 replicates). For G61S S63A R100E S107K, the assay gave 3.5 nM (6 of 6 replicates). With T28E S63D R100K A101E the result was 3.0 nM (5 of 6 replicates). The variant T28E L29M K65R S107Q showed 400 nM (2 of 6 replicates). The variant T28D F59A S63R R100Q showed 770 pM (6 of 6 replicates).

The variant T28E S31E G61D R100K S107T showed 1.1 nM (6 of 6 replicates). The variant F59G T104P D106N gave nd (0 of 6 replicates). The variant N30R I51D R57K K65R T104Q F105S gave nd (0 of 6 replicates). With S53A R100H S107K the result was 1.8 nM (6 of 6 replicates). The variant G26M T28S F59A A101N showed 270 nM (3 of 6 replicates). With T28N S31E S53A F59A G61A R100E the result was 1.3 nM (6 of 6 replicates). With T28S R56K G61A R100K the result was 520 pM (6 of 6 replicates). The variant T28S S31N A101N gave 2.4 nM (6 of 6 replicates). With T28S S63N R100E S107K the result was 1.6 nM (6 of 6 replicates).

With N30E G61S S63R R100Q the result was 10 nM (4 of 6 replicates). For T28P G61K R100Q A101L, the assay gave 41 nM (6 of 6 replicates). The variant T28W S31E A101N S107T showed 1.6 nM (2 of 6 replicates). The variant T28Q S31E R100K S107L gave 3.9 nM (6 of 6 replicates).

Picked from the list: the 5 lowest averages where every replicate gave a value.

{"changes": "T28S R56K G61A R100K", "Kd": "520 pM", "replicates with signal": "6/6"}
{"changes": "T28D F59A S63R R100Q", "Kd": "770 pM", "replicates with signal": "6/6"}
{"changes": "T28D G61I S63E A101T", "Kd": "1.0 nM", "replicates with signal": "6/6"}
{"changes": "T28E S31E G61D R100K S107T", "Kd": "1.1 nM", "replicates with signal": "6/6"}
{"changes": "T28N G61L R100N", "Kd": "1.2 nM", "replicates with signal": "6/6"}

Data: MIT Lincoln Laboratory AlphaSeq set, Li et al. 2023, doi:10.1038/s41467-023-39022-2, as distributed in FLAb.